The test system of this test is Her-2 in SkBr3 cells. The test is described as follows: Her-2 depletion in SkBr3 cells (pharmacodynamic marker of cellular efficacy). The class given is cell-based. Conditions: read-out: PD (μM), pharmacodynamic EC50, Her-2 depletion; SkBr3 cells treated with the inhibitor overnight.
Broadly, the EC50 is the concentration at which the effect is half-maximal. Take `CCCC1C/C=C/CCCCC(=NOCC(=O)N2CCCCC2)Cc2c(Cl)c(O)cc(O)c2C(=O)O1` (stereo not drawn): the EC50 was no more than 5 µM.

On to `O=C1OCC/C=C/CCCCC(=NOCC(=O)N2CCCCC2)Cc2c(Cl)c(O)cc(O)c21`, for which the EC50 is no more than 10 µM.

Consider `CCCC1C/C=C/CCCCC(=NOCC(=O)N2CCCCC2)Cc2cc(O)cc(O)c2C(=O)O1` (stereo not drawn), for which the EC50 was greater than 10 µM.

The values are drawn from patent publication US20150374680A1, “POCHOXIME CONJUGATES USEFUL FOR THE TREATMENT OF HSP90 RELATED PATHOLOGIES” (UNIVERSITE DE STRASBOURG, priority 2010, published 2015).
